Molecular target: Ribosomal protein S6 kinase beta-1 (Homo sapiens, UniProt P23443)
Experiment: Inhibition of p70S6K

By UniProt entry, the sequences of proteins in these tests, tags left out. Where a name states a change or a piece, a line headed by the entry shows the natural chain unless it says otherwise.
UniProt P23443: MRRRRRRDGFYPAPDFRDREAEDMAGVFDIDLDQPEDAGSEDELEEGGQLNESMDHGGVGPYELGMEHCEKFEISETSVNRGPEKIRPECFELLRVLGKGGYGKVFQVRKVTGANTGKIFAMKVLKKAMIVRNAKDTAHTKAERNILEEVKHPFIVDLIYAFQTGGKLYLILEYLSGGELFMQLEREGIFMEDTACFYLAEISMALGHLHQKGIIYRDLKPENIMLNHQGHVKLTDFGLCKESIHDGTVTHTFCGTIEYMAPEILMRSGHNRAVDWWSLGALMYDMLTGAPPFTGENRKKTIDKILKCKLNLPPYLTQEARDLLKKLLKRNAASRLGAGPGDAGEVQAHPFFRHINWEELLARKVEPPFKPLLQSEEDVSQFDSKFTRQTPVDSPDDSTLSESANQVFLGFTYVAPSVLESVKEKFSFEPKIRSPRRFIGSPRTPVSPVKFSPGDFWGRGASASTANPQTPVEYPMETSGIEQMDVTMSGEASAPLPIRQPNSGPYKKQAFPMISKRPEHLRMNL

- IC50: > 30 µM
Compound: CC(C)NCc1ccc(Nc2cc(-c3ccc(-c4ccc(O)cc4O)cc3)[nH]n2)cc1
